The values below are quoted from earlier work in patent publication US6596701B1, “S-adenosyl methionine regulation of metabolic pathways and its use in diagnosis and therapy” (MediQuest Therapeutics, Inc., priority 1995, dated 2003).

Molecules are shown by their SMILES.

The test system of the series is natural killer cell function. The note with it: Crohn's disease patients; cited from earlier work.

Turning to `O=C(O)CCCC[C@@H]1SC[C@@H]2NC(=O)N[C@@H]21` [biotin], the “natural killer cell function” value is on record as “increases their natural killer cell function”.
